Source: patent US20220332695A1, “UREA DERIVATIVES AS CB1 ALLOSTERIC MODULATORS” (RTI INTERNATIONAL, priority 2019, published 2022)

Biological target: hCB1R (Homo sapiens, UniProt P21554)
Experiment: Intrinsic activity: basal [35S]GTPγS binding in the absence of CP55,940
Conditions: read-out: inverse agonism IC50

For O=C(Nc1ccc(Cl)cc1)Nc1cccc(-c2cccc(N3CCCC3)n2)c1 [Compound 2, reference compound], the IC50 was 1.47 µM.
